Biological target: Cyclin-dependent kinase 4 (Homo sapiens, UniProt P11802)
Test: Inhibition of Cyclin-dependent kinase 4 (CDK4/cyclin Dl)

Sequences of proteins named here, by UniProt entry; tags and fusion partners are left off. A change or cut given only in a name is not applied to a line headed by its entry.
UniProt P11802: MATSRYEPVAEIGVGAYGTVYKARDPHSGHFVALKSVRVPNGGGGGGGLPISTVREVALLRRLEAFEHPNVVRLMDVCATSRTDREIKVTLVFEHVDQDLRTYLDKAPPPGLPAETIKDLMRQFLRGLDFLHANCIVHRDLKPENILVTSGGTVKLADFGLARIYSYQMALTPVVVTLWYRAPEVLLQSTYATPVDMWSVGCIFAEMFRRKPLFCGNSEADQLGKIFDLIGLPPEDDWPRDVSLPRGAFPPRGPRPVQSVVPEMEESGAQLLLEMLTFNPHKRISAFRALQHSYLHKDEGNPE

**Q.** Cn1cnc2c(NCc3ccccc3)nc(NCCO)nc21 [OLOMOUCINE] was tested. Which IC50 did it give?
**A.** > 200 µM

From ChEMBL document CHEMBL1133408, “5-Arylamino-2-methyl-4,7-dioxobenzothiazoles as inhibitors of cyclin-dependent kinase 4 and cytotoxic agents” (Bioorg Med Chem Lett, 2000)
